According to patent publication US20210353579A1, “HIGH PENETRATION COMPOSITIONS AND USES THEREOF” (Techfields Pharma Co., Ltd., priority 2006, published 2021):

Test: in vivo
Conditions: rat
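Note: acute toxicity in rats expressed as LD50, determined for both prodrugs and their parent compounds.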

Compound: C=CCOc1ccc(CC(=O)O)cc1Cl [Alclofenac, alclofenac, reference compound]
- LD50: 1050 mg/kg
